13 molecules from ChEMBL document CHEMBL6096635, “Synthesis and biological evaluation of sugar-modified truncated carbanucleosides as A2A and A3 adenosine receptor ligands to explore conformational effect to the receptors” (Bioorg Med Chem, 2024) can be followed below.

Protein sequences, listed by entry. Tags and fused reporters are not part of them.
UniProt P0DMS8, whole entry: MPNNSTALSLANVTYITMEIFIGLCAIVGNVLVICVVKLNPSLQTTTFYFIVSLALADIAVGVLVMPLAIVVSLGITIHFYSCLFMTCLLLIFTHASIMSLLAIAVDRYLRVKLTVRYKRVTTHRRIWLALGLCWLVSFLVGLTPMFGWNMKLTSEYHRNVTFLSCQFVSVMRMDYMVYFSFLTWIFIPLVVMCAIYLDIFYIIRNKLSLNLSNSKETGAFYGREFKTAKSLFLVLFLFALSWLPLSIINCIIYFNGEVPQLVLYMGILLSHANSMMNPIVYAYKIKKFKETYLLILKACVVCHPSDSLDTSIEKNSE
UniProt P30542, whole entry: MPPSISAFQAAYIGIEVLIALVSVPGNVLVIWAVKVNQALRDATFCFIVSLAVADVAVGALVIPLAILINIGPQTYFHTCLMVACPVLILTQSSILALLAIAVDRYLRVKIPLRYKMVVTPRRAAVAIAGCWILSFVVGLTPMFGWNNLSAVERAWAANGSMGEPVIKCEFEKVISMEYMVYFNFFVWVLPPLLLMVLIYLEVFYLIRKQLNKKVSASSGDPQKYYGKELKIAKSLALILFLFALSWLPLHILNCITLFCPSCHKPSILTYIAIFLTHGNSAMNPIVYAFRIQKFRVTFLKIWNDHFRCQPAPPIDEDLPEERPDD

Holding throughout (assay type): cell membranes
Assay [1] concerns the target Adenosine receptor A3 (Homo sapiens) (UniProt P0DMS8). Briefly: Displacement of [3H]-NECA from human A3AR extracted from human HeLa cell membrane at 10 uM incubated for 180 mins by beta scintillation counter analysis relative to control.
Assay [2] has as its target Adenosine receptor A1 (Homo sapiens) (UniProt P30542). Briefly: Displacement of [3H]-DPCPX from human A1AR extracted from CHO cell membrane at 10 uM incubated for 60 mins by beta scintillation counter analysis relative to control.
The target of assay [3] is T1, Adenosine receptor A2b (Homo sapiens) (UniProt P29275).
T1 sequence (whole entry): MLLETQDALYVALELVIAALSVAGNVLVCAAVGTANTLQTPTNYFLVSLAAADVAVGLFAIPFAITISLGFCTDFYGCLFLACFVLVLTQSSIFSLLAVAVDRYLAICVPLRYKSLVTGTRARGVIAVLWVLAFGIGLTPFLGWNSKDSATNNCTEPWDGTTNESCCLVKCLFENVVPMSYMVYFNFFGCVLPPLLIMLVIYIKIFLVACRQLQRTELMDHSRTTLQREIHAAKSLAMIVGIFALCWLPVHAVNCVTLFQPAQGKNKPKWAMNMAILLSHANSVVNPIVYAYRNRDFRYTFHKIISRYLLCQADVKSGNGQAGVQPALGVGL
The experiment in a line: Displacement of [3H]-DPCPX from human A2BAR extracted from HEK cell membrane at 10 uM incubated for 30 mins by beta scintillation counter analysis relative to control. Background: Loss of bound radioactivity is the signal in a displacement assay; it reports binding, not function.

For assay [4], the target named is Adenosine receptor A2a (Homo sapiens) (UniProt P29274). Briefly: Displacement of [3H]-ZM241385 from human A2AAR extracted from human HeLa cell membrane at 10 uM incubated for 30 mins by beta scintillation counter analysis relative to control.

For the molecule `CCCCC#Cc1nc(N)c2ncn([C@@H]3C=C[C@@H](O)[C@H]3O)c2n1`, the Activity in assay [1] came out at 91%; in assay [2] it was 49%; in assay [3] it was 17%.
As to `CCCCC#Cc1nc(N)c2ncn([C@@H]3CC[C@@H](O)[C@H]3O)c2n1`, the Activity was determined as 26% in assay [2] and 3% in assay [3].
In turn, `CCCCC#Cc1nc(N)c2nc(-c3cccs3)n([C@H]3[C@H](O)[C@H](O)[C@@H]4C[C@@H]43)c2n1` displayed an Activity in assay [3] of 52%.
On to `CCCCC#Cc1nc(N)c2nc(Br)n([C@H]3[C@H](O)[C@H](O)[C@@H]4C[C@@H]43)c2n1`, for which the Activity in assay [2] worked out at 84%; in assay [3] it was 23%.
For `CCCCC#Cc1ccc(-c2nc3c(N)nc(C#CCCCC)nc3n2[C@H]2[C@H](O)[C@H](O)[C@@H]3C[C@@H]32)cc1` the same measures were 58% and 2%.
As to `CCCCC#Cc1nc(N)c2nc(-c3cc4sccc4s3)n([C@H]3[C@H](O)[C@H](O)[C@@H]4C[C@@H]43)c2n1`, the Activity in assay [4] is 78%; in assay [3], 1%.
Consider `CCCCC#Cc1nc(N)c2nc(-c3ccco3)n([C@H]3[C@H](O)[C@H](O)[C@@H]4C[C@@H]43)c2n1`, for which the Activity in assay [3] came out at 84%.
On to `CCCCC#Cc1nc(N)c2nc(CCN)n([C@H]3[C@H](O)[C@H](O)[C@@H]4C[C@@H]43)c2n1`, for which the Activity in assay [1] is 83%; in assay [4] it was 62%; in assay [2] it was 38%; in assay [3], 11%.
As to `Nc1ncnc2c1ncn2[C@]12C[C@H]1C[C@@H](O)[C@H]2O`, the Activity in assay [1] was 13%; in assay [4], 12%; in assay [2] it was 18%; in assay [3], 3%.
For `CCCCC#Cc1nc(N)c2nc(-c3ccc(C#N)cc3)n([C@H]3[C@H](O)[C@H](O)[C@H]4C[C@H]43)c2n1` the same measures were 77%, 79%, 65% and 10%.
For `O[C@@H]1C[C@@H]2C[C@]2(n2cnc3c(NCc4cccc(Cl)c4)ncnc32)[C@@H]1O` the same measures were 70%, 19%, 15% and 10%.
For `CCCCC#Cc1nc(N)c2ncn([C@]34C[C@H]3C[C@@H](O)[C@H]4O)c2n1` the same measures were 77%, 56%, 18% and 7%.
On to `CCCCC#Cc1nc(N)c2nc(-c3ccccc3)n([C@H]3[C@H](O)[C@H](O)[C@@H]4C[C@@H]43)c2n1`, for which the Activity in assay [3] was 71%.
